Drawing on PubChem BioAssay AID2058 (Sanford-Burnham Center for Chemical Genomics, 2009), this text covers inhibition for 44 compounds.

Sequences of proteins named here, by UniProt entry; tags and fusion partners are left off. A change or cut given only in a name is not applied to a line headed by its entry.
UniProt Q9HC97: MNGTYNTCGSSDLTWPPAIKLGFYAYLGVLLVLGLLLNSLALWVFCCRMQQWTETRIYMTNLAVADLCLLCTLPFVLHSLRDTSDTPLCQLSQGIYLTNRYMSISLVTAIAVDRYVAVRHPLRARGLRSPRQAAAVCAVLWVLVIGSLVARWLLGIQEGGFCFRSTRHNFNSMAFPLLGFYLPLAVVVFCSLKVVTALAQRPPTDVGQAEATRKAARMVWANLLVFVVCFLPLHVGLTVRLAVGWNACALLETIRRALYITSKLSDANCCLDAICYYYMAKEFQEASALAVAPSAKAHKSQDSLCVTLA

This is a selection; strong and weak results do not stand in their true shares. Results with a measured potency or affinity are listed apart. Activity calls are given as the source filed them.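 Rule for the calls: active = inhibition of at least 50% with at least 30 cells and total cytoplasm GFP at most 10,000,000; inconclusive = under 30 cells or total GFP of 10,000,000 plus; inactive = the rest.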

The target in the test is G-protein coupled receptor 35 (Homo sapiens) (UniProt Q9HC97). The test is described as follows: inhibition of zaprinast-stimulated GPR35 beta-arrestin translocation – imaging, U2OS, beta-arrestin-GFP, zaprinast agonist, primary screen (AID 2058). Particulars: zaprinast antagonism, at 10 µM, hits give high values.
For orientation: inhibition means the change of the read-out against control, counted positive when it falls. Consider `COc1cc(C2NCCC3(OCCO3)C2(C)C)cc(OC)c1OC` (centres undefined), for which the inhibition was inactive: -0.4%.

For `CCOP(=O)(Nc1cccc2ccccc12)OCC`, the inhibition is inactive: -2.3%.

Turning to `O=[As](O)(O)c1cccnc1`, the inhibition is inactive: -9.9%.

Turning to `COc1cc(C(=O)NCC2(N3CCOCC3)CCCCC2)cc(Cl)c1OC(C)C`, the inhibition is inactive: -6.9%.

Turning to `CS(=O)(=O)c1ccc(Cl)c(NC(=O)COC(=O)C(O)(c2ccccc2)c2ccccc2)c1`, the inhibition was inactive: 1.3%.

Take `O=C(OC1CN2CCC1CC2)c1ccc(Cl)cc1` (centres undefined): the inhibition is inactive: -1.6%.

Take `Cc1cccc(OCC(=O)OC2CN3CCC2CC3)c1` (centres undefined): the inhibition is inactive: 12.4%.

For the compound `O=[As](O)(c1cccc(O)c1)c1cccc(O)c1`, the inhibition was inactive: -1.4%.

For `NC(=O)Nc1ccc([As](=O)(O)O)cc1`, the inhibition is inactive: -12.3%.

Turning to `O=[N+]([O-])c1ccc2c(c1)nnn2O`, the inhibition was inactive: 8.4%.

As to `CN(C(=O)Cc1ccccc1)[C@@H]1CC[C@]2(CCCO2)C[C@H]1N1CCCC1`, the inhibition is inactive: 15.5%.

Turning to `CCOP1(=S)c2c(C)nn(CCC#N)c2N=C(c2ccc(F)cc2)N1C` (centres undefined), the inhibition is inactive: 17.4%.

Regarding `CS(=O)(=O)c1cc([N+](=O)[O-])c2no[n+]([O-])c2c1`, the inhibition was inactive: 2.7%.

`CCOP1(=S)c2c(C)nn(CCC#N)c2N=C(c2ccccc2F)N1C` (centres undefined): the inhibition was inactive: -10.3%.

As to `O=P(Nc1nccs1)(Oc1ccccc1)Oc1ccccc1`, the inhibition is inactive: 3.6%.

Turning to `O=P(Nc1nccs1)(c1ccccc1)c1nc2ccccc2s1` (centres undefined), the inhibition was inactive: -7.9%.

For `O=C(O)COc1ccc([As](=O)(O)O)cc1[N+](=O)[O-]`, the inhibition is inactive: 27.6%.

Turning to `Nc1ccccc1[As](=O)(O)c1ccccc1`, the inhibition is inactive: 3.5%.

Take `CC(C)c1ccc(OP(=O)(Nc2ccccn2)Oc2ccccc2F)cc1` (centres undefined): the inhibition is inactive: -3.5%.

Turning to `ClCCSc1nnc(-c2cccnc2)o1`, the inhibition was inactive: -11.5%.

As to `CC(C)NC(=O)NP(=O)(Oc1ccccc1)Oc1ccccc1`, the inhibition was inactive: 2.2%.

For `CCN(CC)C(=S)SC(NC=O)C(Cl)(Cl)Cl` (centres undefined), the inhibition was inactive: 24.4%.

On to `O=[N+]([O-])c1cc([N+](=O)[O-])c(-c2ccn[nH]2)s1`, for which the inhibition was inactive: -4.4%.

As to `C[As](=O)(O)c1cccc(C(=O)O)c1`, the inhibition was inactive: 19.8%.

As to `O=[As](O)(c1ccc(O)cc1)c1ccccc1O`, the inhibition is inactive: 15.5%.

As for `Cc1ccc2nc3c(c(C)c2c1)CC(C(Cl)Cl)S3` (centres undefined), the inhibition was inactive: -6.3%.

As to `Cc1ccc(OP(=O)(Nc2ccc([N+](=O)[O-])cn2)Oc2ccc(C)cc2)cc1`, the inhibition was inactive: 17.4%.

For `COc1ccc(N/C(=N/P(=O)(N2CCOCC2)N2CCOCC2)N2CCOCC2)cc1`, the inhibition was inactive: -2.1%.

With `O=C(OC1CN2CCC1CC2)C12CC3CC(CC(C3)C1)C2` (centres undefined), the inhibition was inactive: -6.5%.

Turning to `Cc1cc(=O)[nH]c(N[N+](=O)[O-])n1`, the inhibition was inactive: -3.9%.

Regarding `COc1ccc2nc(NP(=O)(c3ccccc3)c3ccccc3)sc2c1`, the inhibition was inactive: 2%.

Consider `COc1cc(I)ccc1[As](=O)(O)O`, for which the inhibition is inactive: -9.7%.

`CCOC(=O)c1ccc(NC(=O)C(C)(CCl)SC)cc1` (centres undefined): the inhibition was inactive: -1.7%.

Turning to `O=C(OC1CN2CCC1CC2)c1cccc([N+](=O)[O-])c1` (centres undefined), the inhibition was inactive: 11.5%.

As to `CCC(C)N(CC(C)C)C(=S)SC(NC(C)=O)C(Cl)(Cl)Cl` (centres undefined), the inhibition is inactive: -3.7%.

Regarding `COP1(=S)c2c(C)nn(CCC#N)c2N=C(c2ccc(F)cc2)N1C` (centres undefined), the inhibition is inactive: -11.8%.

Consider `O=C(COc1ccccc1)OC1CN2CCC1CC2` (centres undefined), for which the inhibition is inactive: 1.5%.

Consider `O=C(Nc1ccncc1[N+](=O)[O-])c1ccc([N+](=O)[O-])cc1[N+](=O)[O-]`, for which the inhibition is inactive: 0.7%.

With `CCOC(=O)Nc1cccc([As](=O)(O)O)c1`, the inhibition is inactive: 10.2%.

Consider `O=[N+]([O-])c1ccc(Nc2ccc(Oc3ccc([N+](=O)[O-])cc3[N+](=O)[O-])cc2)c([N+](=O)[O-])c1`, for which the inhibition is inactive: 9.8%.

For the compound `Cc1cc(SC(NC=O)C(Cl)(Cl)Cl)ncn1` (centres undefined), the inhibition was inactive: -11.9%.

With `CCOC(=O)Nc1ccc([As](=O)(O)O)c(O)c1`, the inhibition was inactive: -5.2%.

Turning to `CCCCOc1ccc(C(=O)NCC2(N3CCCCC3)CCCCC2)cc1OC`, the inhibition is inactive: 0.9%.

Consider `Cc1cc(SC(NC(=O)c2ccccc2)C(Cl)(Cl)Cl)nc(C(C)C)n1` (centres undefined), for which the inhibition was inactive: -17.8%.
